Reference: PMC10390508, “Structural insights into selective small molecule activation of PKG1α” (Communications Biology, 2023)

The chains behind the UniProt entries cited, without tags or fusion partners. Residues count along the entry.
UniProt Q13976, 2-671: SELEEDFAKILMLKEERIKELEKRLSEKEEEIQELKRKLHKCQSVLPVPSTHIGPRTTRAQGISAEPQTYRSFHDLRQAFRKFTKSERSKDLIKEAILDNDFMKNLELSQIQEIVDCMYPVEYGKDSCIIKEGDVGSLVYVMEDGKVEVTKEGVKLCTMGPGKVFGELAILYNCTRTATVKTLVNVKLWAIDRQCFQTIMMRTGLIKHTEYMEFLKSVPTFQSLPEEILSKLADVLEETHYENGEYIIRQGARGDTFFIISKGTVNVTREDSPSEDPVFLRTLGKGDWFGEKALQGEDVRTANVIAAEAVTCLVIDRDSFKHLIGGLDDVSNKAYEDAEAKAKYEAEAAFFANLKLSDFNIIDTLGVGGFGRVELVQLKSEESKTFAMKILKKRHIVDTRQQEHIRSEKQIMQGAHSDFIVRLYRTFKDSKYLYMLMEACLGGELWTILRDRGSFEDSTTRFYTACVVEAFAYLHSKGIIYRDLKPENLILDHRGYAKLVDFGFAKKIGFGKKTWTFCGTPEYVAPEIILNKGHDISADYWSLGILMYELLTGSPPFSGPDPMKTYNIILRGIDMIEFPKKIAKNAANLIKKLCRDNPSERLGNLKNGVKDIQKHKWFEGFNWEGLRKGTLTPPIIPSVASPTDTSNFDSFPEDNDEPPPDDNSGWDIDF

Biological target: full-length PKG1α (human PKG1α2–671) (Homo sapiens, UniProt Q13976)

SMILES: Nc1nc2c(ncn2[C@@H]2O[C@@H]3COP(=O)(O)O[C@H]3[C@H]2O)c(=O)[nH]1 [cGMP, Cyclic guanosine monophosphate]
- V0: ~ 0.25 μmol min^−1 mg^−1
- cGMP EC20, activation of full length PKG1α (4-parameter fit of initial velocities): 10 nM and ~ 10 nM
- V0 (partial activation at EC20, 10 nM cGMP): ~ 0.13 μmol min^−1 mg^−1

Values joined by “and” are separate entries in the source; they are usually repeats but may differ in a detail not shown here. Equal entries are not always repeated. Where two headings read alike, the source gives them in different places.
